# Where a name gives a salt, the structure may show the parent alone.
# Amino acid sequences for entries named in this document (tags omitted). Residues count along the entry.
# UniProt Q16620, 32-822: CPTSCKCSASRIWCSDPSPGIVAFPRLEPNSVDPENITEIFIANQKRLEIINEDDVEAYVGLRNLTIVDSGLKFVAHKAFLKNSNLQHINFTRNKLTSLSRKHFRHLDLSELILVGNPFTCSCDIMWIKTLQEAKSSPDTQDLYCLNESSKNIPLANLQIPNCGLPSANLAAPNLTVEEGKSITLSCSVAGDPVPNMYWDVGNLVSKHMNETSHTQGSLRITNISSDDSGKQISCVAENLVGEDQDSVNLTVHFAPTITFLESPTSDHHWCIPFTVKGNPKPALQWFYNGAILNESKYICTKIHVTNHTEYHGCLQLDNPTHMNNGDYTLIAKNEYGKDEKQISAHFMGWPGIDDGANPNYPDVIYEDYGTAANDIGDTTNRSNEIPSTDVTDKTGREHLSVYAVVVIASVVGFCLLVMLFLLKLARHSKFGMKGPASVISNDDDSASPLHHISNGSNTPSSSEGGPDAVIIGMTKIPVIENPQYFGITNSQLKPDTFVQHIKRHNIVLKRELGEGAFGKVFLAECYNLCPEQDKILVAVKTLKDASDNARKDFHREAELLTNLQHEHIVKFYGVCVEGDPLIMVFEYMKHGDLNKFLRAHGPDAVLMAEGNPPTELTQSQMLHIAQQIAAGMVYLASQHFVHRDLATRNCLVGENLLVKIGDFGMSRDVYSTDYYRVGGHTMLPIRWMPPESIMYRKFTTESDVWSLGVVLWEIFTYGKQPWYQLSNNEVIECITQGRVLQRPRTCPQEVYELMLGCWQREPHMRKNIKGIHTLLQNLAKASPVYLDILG
# Biological target: TrkB (Homo sapiens (Human), UniProt Q16620)
# Test: biochemical
# Conditions: read-out: % Inhibition @ 0.1 μM
smiles,measurement,value
"COc1ccc2c(c1)[C@]1(C[C@H]1c1ccc3c(-c4ccc(N5CCN(C)CC5)cc4)n[nH]c3c1)C(=O)N2 [Example A39, (1R,2S)-5′-methoxy-2-(3-(4-(4-methylpiperazin-1-yl)phenyl)-1H-indazol-6-yl)spiro[cyclopropane-1,3′-indolin]-2′-one hydrochloride]",inhibition at 0.1 µM,70%
